ChEMBL document CHEMBL4342468, “Evolution of a 4-Benzyloxy-benzylamino Chemotype to Provide Efficacious, Potent, and Isoform Selective PPARα Agonists as Leads for Retinal Disorders” (J Med Chem, 2020)

Experiments:
[1] = target: T1, Peroxisome proliferator-activated receptor alpha (Homo sapiens) (UniProt Q07869); experiment: Binding affinity to His-tagged PPARalpha LBD (unknown origin) expressed in Escherichia coli Rosetta (DE3) assessed as change in enthalpy at 25 degree C by isothermal titration calorimetry
T1 sequence (whole entry): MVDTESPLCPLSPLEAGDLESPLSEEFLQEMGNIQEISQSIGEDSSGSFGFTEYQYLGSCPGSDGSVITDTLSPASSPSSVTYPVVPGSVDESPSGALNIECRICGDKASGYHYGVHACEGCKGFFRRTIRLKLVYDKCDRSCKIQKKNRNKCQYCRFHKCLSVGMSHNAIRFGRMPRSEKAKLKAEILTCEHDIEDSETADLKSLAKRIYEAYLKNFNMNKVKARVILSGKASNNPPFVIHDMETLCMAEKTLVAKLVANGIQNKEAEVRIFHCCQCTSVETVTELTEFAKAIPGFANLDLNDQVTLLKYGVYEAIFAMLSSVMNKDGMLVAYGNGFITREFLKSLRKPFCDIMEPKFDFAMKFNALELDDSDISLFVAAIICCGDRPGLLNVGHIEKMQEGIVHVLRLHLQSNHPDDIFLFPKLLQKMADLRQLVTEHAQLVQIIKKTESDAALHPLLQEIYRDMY

[2] = target: T2, Peroxisome proliferator-activated receptor alpha (Homo sapiens, UniProt Q07869); experiment: Binding affinity to His-tagged PPARalpha LBD (unknown origin) expressed in Escherichia coli Rosetta (DE3) at 25 degree C by isothermal titration calorimetry
T2 sequence (Q07869 whole entry): T1 sequence (whole entry)

[3] = target: T1, Peroxisome proliferator-activated receptor alpha (Homo sapiens); experiment: Binding affinity to His-tagged PPARalpha LBD (unknown origin) expressed in Escherichia coli Rosetta (DE3) assessed as change in Gibbs free energy at 25 degree C by isothermal titration calorimetry
[4] = target: T1, Peroxisome proliferator-activated receptor alpha (Homo sapiens); experiment: Agonist activity at human PPARalpha expressed in nonhuman mammalian cells assessed as maximal increase in receptor transcriptional activity incubated for 22 to 24 hrs by luciferase reporter gene assay relative to GW590735; assay type: cell-based

Compound | deltaH [1] | Kd [2] | deltaG [3] | fold change (FC) [4]
COc1ccc(COc2ccc(CNc3cccc(C(=O)O)c3)cc2)cc1 | -12.2 kcal/mol | 16.9 µM | -6.5 kcal/mol | 1.4
Cc1nc(-c2ccc(C(F)(F)F)cc2)sc1C(=O)NCc1ccc(OC(C)(C)C(=O)O)cc1 [GW590735] | – | 0.17 µM | -9.24 kcal/mol | –
